Experimental data: ChEMBL document CHEMBL1145019, “The power of visual imagery in drug design. Isopavines as a new class of morphinomimetics and their human opioid receptor binding activity” (J Med Chem, 2003)

Chains of the proteins cited; added tags and fusions are not shown.
UniProt P35372, whole entry: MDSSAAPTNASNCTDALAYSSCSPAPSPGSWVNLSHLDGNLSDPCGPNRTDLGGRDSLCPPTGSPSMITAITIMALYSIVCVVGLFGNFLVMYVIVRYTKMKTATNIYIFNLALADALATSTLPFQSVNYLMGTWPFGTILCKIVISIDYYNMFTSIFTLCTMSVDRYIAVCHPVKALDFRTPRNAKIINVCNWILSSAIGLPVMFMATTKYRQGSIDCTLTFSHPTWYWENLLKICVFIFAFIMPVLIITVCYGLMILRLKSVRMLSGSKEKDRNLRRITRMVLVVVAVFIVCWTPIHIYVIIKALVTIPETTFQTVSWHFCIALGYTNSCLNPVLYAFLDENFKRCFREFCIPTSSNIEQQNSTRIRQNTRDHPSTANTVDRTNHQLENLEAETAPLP

Biological target: Mu-type opioid receptor (Homo sapiens, UniProt P35372)
Assay: biochemical
Type: cell-based, HEK293

CN1CC[C@]23CCCC[C@H]2[C@H]1Cc1ccc(O)cc13 [LEVORPHANOL]
IC50: 0.13 nM
